# Values of other authors in patent US4910152A, “Method for binding opioid receptors” (priority 1986, dated 1990).
# Test system: opiate receptors
# Details: animals and humans; cited from earlier work
smiles,measurement,value
"C=CCN1CC[C@]23c4c5ccc(O)c4O[C@H]2C(=O)CC[C@@]3(O)[C@H]1C5 [naloxone, reference compound]",reduction of food intake,reduces food intake
